# Columns and labels:
# human PD-L1 [1] = target: T1, human PD-L1 (human, UniProt Q9NZQ7 19-238); experiment: SPR (Biacore 3000), biotinylated PD-L1 captured on streptavidin, peptide as analyte
# T1 construct: Soluble recombinant protein; In the SPR assay it was biotinylated and captured on streptavidin; also called hPD-L1; Programmed cell death 1 ligand 1
# Method: Biacore experiments were performed to determine kₐ (M⁻¹s⁻¹), kd (s⁻¹), KD (nM) values of monomeric peptides binding to human PD-L1 protein. […] The protein was desalted to remove uncoupled biotin using spin columns into PBS. For analysis of binding, a Biacore 3000 instrument was used utilizing a CM5 sensor chip (GE Healthcare). Streptavidin was immobilized on the chip using standard amine-coupling chemistry at 2500 with HBS-N (10 mM HEPES, 0.15 M NaCl, pH 7.4) as the running buffer. The carboxymethyl dextran surface was activated with a 12 min injection of a 1:1 ratio of 0.4 M 1-ethyl-3-(3-dimethylaminopropyl) carbodiimide hydrochloride (EDC)/0.1 M N-hydroxy succinimide (NHS) at a flow rate of 10 μl/min. For capture of streptavidin, protein was diluted to 0.1 mg/ml in 10 mM sodium acetate (pH 4.5) and captured by injecting 70 μl onto the activated chip surface. Residual activated groups were blocked with a 7 min injection of 1 M ethanolamine (pH 8.5). Biotinylated PD-L1 stock was diluted 1:100 in HBS-N and captured on one flow cell at 5 μl/min to a level of 1000-1300 RU. Buffer was changed to PBS/0.05% Tween 20 and a dilution series of the peptides was prepared in this buffer with a final DMSO concentration of 0.5%. The top concentrations were 200 nM or 500 nM with 6 2-fold dilutions. The SPR analysis was run at 25° C. at a flow rate of Flow rate 50 μl/min with 60 seconds association and 400 seconds disassociation. Data were corrected for DMSO excluded volume effects. All data were double-referenced for blank injections and reference surface using standard processing procedures and data processing and kinetic fitting were performed using Scrubber software, version 2.0c (Biologic Software). Data were fitted using mass transport model allowing for mass transport effects where appropriate.
# human PD-L1 [2] = target: T1, human PD-L1; experiment: fluorescence polarisation competition, competitor tracer BCY585
# Method: (§1) Affinity of the peptides of the invention for human PD-L1 (Ki) was determined using a fluorescence polarisation assay, in accordance with the methods disclosed in WO2016/067035. Peptides of the invention with a fluorescent tag (either fluorescein, SIGMA or Alexa Fluor488™, Fisher Scientific) were diluted to 2.5 nM in PBS with 0.01% tween 20 or 50 mM HEPES with 100 mM NaCl and 0.01% tween pH 7.4 (both referred to as assay buffer). This was combined with a titration of protein in the same assay buffer as the peptide to give 1 nM peptide in a total volume of 25 μL in a black walled and bottomed low bind low volume 384 well plates, typically 5 μL assay buffer, 10 μL protein then 10 μL fluorescent peptide. […] Measurements were conducted on a BMG PHERAstar FS equipped with an “FP 485 520 520” optic module which excites at 485 nm and detects parallel and perpendicular emission at 520 nm. The PHERAstar FS was set at 25° C. with 200 flashes per well and a positioning delay of 0.1 second, with each well measured at 5 to 10 minute intervals for 60 minutes. The gain used for analysis was determined for each tracer at the end of the 60 minutes where there was no protein in the well. Data was analysed using Systat Sigmaplot version 12.0. mP values were fit to a user defined quadratic equation to generate a Kd value: f=ymin+(ymax−ymin)/Lig*((x+Lig+Kd)/2−sqrt((((x+Lig+Kd)/2)\hat{ }2)−(Lig*x))). “Lig” was a defined value of the concentration of tracer used.
# Peptides were diluted to an appropriate concentration in assay buffer as described in the direct binding assay with a maximum of 5% DMSO, then serially diluted 1 in 2. Five μL of diluted peptide was added to the plate followed by 10 μL of human PD-L1, then 10 μL fluorescent peptide added. Measurements were conducted as for the direct binding assay, however the gain was determined prior to the first measurement.
# human PD-L1 [3] = target: T1, human PD-L1; experiment: fluorescence polarisation, listed in Table 1 (direct binding assay); mean of 4 experiments
# Method: Affinity of the peptides of the invention for human PD-L1 (Ki) was determined using a fluorescence polarisation assay, in accordance with the methods disclosed in WO2016/067035. Peptides of the invention with a fluorescent tag (either fluorescein, SIGMA or Alexa Fluor488™, Fisher Scientific) were diluted to 2.5 nM in PBS with 0.01% tween 20 or 50 mM HEPES with 100 mM NaCl and 0.01% tween pH 7.4 (both referred to as assay buffer). This was combined with a titration of protein in the same assay buffer as the peptide to give 1 nM peptide in a total volume of 25 μL in a black walled and bottomed low bind low volume 384 well plates, typically 5 μL assay buffer, 10 μL protein then 10 μL fluorescent peptide. […] Measurements were conducted on a BMG PHERAstar FS equipped with an “FP 485 520 520” optic module which excites at 485 nm and detects parallel and perpendicular emission at 520 nm. The PHERAstar FS was set at 25° C. with 200 flashes per well and a positioning delay of 0.1 second, with each well measured at 5 to 10 minute intervals for 60 minutes. The gain used for analysis was determined for each tracer at the end of the 60 minutes where there was no protein in the well. Data was analysed using Systat Sigmaplot version 12.0. mP values were fit to a user defined quadratic equation to generate a Kd value: f=ymin+(ymax−ymin)/Lig*((x+Lig+Kd)/2−sqrt((((x+Lig+Kd)/2)\hat{ }2)−(Lig*x))). […]
# human PD-L1 [4] = target: T1, human PD-L1; experiment: fluorescence polarisation, listed in Table 1 (direct binding assay)
# Method: as §1
Binder,Kd (human PD-L1 [1]),Ki (human PD-L1 [2]),Kd (human PD-L1 [3]),Kd (human PD-L1 [4])
"ACPFPVEWCPRCA (the three cysteines (Ci, Cii, Ciii) cyclised with TBMB (1,3,5-tris(bromomethyl)benzene), Bicyclic peptide on TBMB scaffold, no fluorescent tag) [BCY509]",24.1 nM,6.53 nM,7.88 nM,–
"ACPFPVEWCSRCA (the three cysteines (Ci, Cii, Ciii) cyclised with TBMB (1,3,5-tris(bromomethyl)benzene), Bicyclic peptide on TBMB scaffold, no fluorescent tag) [BCY507]",–,157 nM,–,157 nM
"ACPFPEEWCPRCA (the three cysteines (Ci, Cii, Ciii) cyclised with TBMB (1,3,5-tris(bromomethyl)benzene), Bicyclic peptide on TBMB scaffold, no fluorescent tag) [BCY508]",–,75.1 nM,–,75.1 nM
"ACPDNNSICHLWCA (the three cysteines (Ci, Cii, Ciii) cyclised with TBMB (1,3,5-tris(bromomethyl)benzene), Bicyclic peptide on TBMB scaffold, no fluorescent tag) [BCY514]",–,165 nM,–,165 nM
"ACPDPHGICHLWCA (the three cysteines (Ci, Cii, Ciii) cyclised with TBMB (1,3,5-tris(bromomethyl)benzene), Bicyclic peptide on TBMB scaffold, no fluorescent tag) [BCY515]",212 nM,51.2 nM,–,51.2 nM
"ACPDPHNICHLWCA (the three cysteines (Ci, Cii, Ciii) cyclised with TBMB (1,3,5-tris(bromomethyl)benzene), Bicyclic peptide on TBMB scaffold, no fluorescent tag) [BCY516]",171 nM,48.8 nM,–,48.8 nM

# From patent US20260137791A1 (published 2026)
